Laboratory results from ChEMBL document CHEMBL1150356, “Design, synthesis and biological evaluation of substituted pyrrolo[2,3-d]pyrimidines as multiple receptor tyrosine kinase inhibitors and antiangiogenic agents” (Bioorg Med Chem, 2008).

Sequences of proteins named here, by UniProt entry; tags and fusion partners are left off.
UniProt P17948, whole entry: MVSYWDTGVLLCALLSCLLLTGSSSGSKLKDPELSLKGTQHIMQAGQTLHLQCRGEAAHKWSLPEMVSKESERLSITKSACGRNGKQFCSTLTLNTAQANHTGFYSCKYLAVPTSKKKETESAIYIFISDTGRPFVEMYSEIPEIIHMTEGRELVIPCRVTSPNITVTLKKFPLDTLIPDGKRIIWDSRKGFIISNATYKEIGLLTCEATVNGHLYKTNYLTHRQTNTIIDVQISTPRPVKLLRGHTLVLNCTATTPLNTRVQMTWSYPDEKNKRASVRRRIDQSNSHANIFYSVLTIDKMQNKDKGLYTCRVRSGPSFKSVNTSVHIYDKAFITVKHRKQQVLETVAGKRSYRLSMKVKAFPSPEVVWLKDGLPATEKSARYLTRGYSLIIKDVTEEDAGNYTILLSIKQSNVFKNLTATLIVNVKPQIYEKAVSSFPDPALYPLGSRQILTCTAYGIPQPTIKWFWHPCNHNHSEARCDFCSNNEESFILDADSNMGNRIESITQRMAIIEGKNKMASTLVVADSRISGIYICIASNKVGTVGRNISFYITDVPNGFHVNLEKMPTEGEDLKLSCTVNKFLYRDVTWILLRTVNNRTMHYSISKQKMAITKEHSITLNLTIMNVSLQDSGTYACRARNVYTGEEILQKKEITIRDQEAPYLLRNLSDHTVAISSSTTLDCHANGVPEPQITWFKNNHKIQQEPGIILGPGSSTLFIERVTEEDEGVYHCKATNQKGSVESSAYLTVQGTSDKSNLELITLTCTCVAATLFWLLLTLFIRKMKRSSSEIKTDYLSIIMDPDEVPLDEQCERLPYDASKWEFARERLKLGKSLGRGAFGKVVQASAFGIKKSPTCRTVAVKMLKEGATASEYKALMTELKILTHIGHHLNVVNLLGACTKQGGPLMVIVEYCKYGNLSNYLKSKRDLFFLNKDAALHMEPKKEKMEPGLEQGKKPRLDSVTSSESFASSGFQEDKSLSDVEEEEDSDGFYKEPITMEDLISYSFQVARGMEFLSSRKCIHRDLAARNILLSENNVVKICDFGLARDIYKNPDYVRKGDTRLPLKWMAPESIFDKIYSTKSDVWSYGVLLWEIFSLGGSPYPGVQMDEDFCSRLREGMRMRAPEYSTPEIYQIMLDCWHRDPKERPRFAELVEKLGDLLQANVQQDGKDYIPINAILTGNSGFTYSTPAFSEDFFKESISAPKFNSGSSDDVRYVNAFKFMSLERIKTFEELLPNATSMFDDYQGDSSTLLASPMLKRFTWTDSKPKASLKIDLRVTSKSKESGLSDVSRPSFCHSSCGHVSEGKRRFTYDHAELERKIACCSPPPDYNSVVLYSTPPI
UniProt P09619, whole entry: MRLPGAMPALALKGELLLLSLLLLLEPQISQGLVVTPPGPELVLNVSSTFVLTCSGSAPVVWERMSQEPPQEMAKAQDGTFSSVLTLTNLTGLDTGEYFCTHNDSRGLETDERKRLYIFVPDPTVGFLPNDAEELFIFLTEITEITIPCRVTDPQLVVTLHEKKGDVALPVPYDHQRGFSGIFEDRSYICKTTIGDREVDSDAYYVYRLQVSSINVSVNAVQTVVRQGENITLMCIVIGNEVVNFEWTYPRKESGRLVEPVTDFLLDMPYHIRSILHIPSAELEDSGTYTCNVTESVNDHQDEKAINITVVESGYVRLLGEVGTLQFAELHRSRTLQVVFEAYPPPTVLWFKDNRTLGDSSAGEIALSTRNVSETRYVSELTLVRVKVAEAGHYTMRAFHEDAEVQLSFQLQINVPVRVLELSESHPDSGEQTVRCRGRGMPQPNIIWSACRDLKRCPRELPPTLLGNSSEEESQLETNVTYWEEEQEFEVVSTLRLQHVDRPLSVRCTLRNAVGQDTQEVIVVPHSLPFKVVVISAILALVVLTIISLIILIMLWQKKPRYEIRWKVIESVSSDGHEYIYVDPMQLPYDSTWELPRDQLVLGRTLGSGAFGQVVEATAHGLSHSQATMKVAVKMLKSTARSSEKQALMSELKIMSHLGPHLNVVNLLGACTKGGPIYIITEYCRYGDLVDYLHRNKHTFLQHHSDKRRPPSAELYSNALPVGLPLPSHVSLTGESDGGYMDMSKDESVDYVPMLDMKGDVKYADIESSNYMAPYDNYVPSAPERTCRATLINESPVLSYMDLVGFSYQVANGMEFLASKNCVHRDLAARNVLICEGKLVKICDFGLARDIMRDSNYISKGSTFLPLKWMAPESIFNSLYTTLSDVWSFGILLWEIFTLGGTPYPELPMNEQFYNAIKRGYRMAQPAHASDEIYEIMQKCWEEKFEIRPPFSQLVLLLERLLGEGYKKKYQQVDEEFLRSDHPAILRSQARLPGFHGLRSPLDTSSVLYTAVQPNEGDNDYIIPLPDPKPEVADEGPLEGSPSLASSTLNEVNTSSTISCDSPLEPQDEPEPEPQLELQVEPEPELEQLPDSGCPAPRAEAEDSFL

Columns and labels:
[1] = biological target: Vascular endothelial growth factor receptor 1 (Homo sapiens, UniProt P17948); assay: Inhibition of VEGFR1 expressed in human tumor cells
[2] = biological target: Platelet-derived growth factor receptor beta (Homo sapiens, UniProt P09619); assay: Inhibition of PDGFRbeta expressed in human tumor cells

Row | SMILES | IC50 [1] [µM] | IC50 [2] [µM]
1 | COc1cc2ncnc(Nc3ccc(Cl)cc3F)c2cc1OC | 17.7 | 
2 | Nc1nc(Nc2cccc(Br)c2)c2cc(Cc3cccc4ccccc34)[nH]c2n1 |  | > 50
